This note sets out measurements from ChEMBL document CHEMBL3745630, “Cloning, characterization and anion inhibition studies of a γ-carbonic anhydrase from the Antarctic bacterium Colwellia psychrerythraea” (Bioorg Med Chem, 2016).

The nature of the experiment: Inhibition of Colwellia psychrerythraea gamma carbonic anhydrase expressed in Escherichia coli incubated for 15 mins prior to testing by stopped flow CO2 hydration method.

As usually defined, the Ki is a measure of affinity in units of concentration, obtained from inhibition or displacement. Take `O=S(=O)(O)NS(=O)(=O)O`: the Ki amounted to 7.9 mM. Under SODIUM DIVANADATE stands 5.8 mM.

In turn, SODIUM PERRHENATE gave a Ki of 7.8 mM. Under SODIUM PERRUTHENATE stands 7.9 mM.

Consider SODIUM STANNATE, for which the Ki turned out to be 1.8 mM.
